Legend:
[1] = molecular target: T1, Odc2p (Saccharomyces cerevisiae, UniProt Q99297); assay: Dependence on internal substrate of [14C]oxoglutarate uptake into proteoliposomes reconstituted with recombinant Odc2p; type: biochemical
T1 construct: made in house; host or cells: S. cerevisiae odc1Δodc2Δ (YPH499 background) carrying pYES2-based pODC2; purified from mitochondria on Ni-NTA agarose
T1 sequence (Q99297 1-307): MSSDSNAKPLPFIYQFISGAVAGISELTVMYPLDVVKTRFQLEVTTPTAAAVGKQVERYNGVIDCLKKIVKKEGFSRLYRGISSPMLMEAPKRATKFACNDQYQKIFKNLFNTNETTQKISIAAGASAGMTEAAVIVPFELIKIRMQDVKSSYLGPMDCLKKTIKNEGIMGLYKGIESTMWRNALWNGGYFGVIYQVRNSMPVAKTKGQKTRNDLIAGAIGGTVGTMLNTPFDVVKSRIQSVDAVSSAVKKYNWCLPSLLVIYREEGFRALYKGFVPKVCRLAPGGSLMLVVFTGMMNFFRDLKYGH
Description: Reconstitution of the ODC proteins into liposomes—Purified ODC proteins were reconstituted by cyclic removal of the detergent with a hydrophobic column (13). The composition of the initial mixture used for reconstitution was: 200 μl of purified isoform (0.3-0.4 μg of protein), 70 μl of 10% Triton X-114, 100 μl of 10% phospholipids in the form of sonicated liposomes, 20 mM oxoglutarate (except where otherwise indicated), 10 mM Pipes (pH 7.0), 0.7 mg of cardiolipin (Sigma) and water to a final volume of 700 μl. […]
External substrate was removed from proteoliposomes on a Sephadex G-75 column preequilibrated with buffer F (50 mM NaCl and 10 mM PIPES, pH 7.0). […] The external radioactivity was removed on Sephadex G-75 and the internal radioactivity was measured. […] The initial rate of transport was calculated in mmol/min per g protein from the time course of isotope equilibration (13). […] For efflux measurements, the internal substrate pool of the proteoliposomes was made radioactive by carrier-mediated exchange equilibration (13) with 0.1 mM [^14C]oxoglutarate added at high specific radioactivity. After 60 min, the residual external radioactivity was removed by passing the proteoliposomes again through a column of Sephadex G-75. […]

[2] = molecular target: T2, Odc1p (Saccharomyces cerevisiae, UniProt Q03028); assay: Kinetic constants (Km, Vmax, Ki) of recombinant purified Odc1p in proteoliposomes; type: biochemical
T2 construct: made in house; host or cells: S. cerevisiae odc1Δodc2Δ (YPH499 background) carrying pYES2-based pODC1; purified from mitochondria on Ni-NTA agarose
T2 sequence (Q03028 1-310): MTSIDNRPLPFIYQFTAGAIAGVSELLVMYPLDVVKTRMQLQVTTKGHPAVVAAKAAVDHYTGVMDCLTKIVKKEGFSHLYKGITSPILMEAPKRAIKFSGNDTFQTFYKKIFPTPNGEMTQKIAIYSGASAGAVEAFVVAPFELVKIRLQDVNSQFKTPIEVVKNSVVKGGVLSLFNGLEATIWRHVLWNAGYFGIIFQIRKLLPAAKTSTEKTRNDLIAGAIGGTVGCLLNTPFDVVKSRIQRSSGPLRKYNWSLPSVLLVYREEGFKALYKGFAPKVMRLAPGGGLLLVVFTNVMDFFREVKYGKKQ
Description: External substrate was removed from proteoliposomes on a Sephadex G-75 column preequilibrated with buffer F (50 mM NaCl and 10 mM PIPES, pH 7.0). Transport at 25° C. was started by adding [^14C]oxoglutarate (unless otherwise indicated) to the proteoliposomes, and terminated by addition of 30 mM pyridoxal 5′-phosphate and 10 mM bathophenanthroline (the “inhibitor-stop” method (13)). In controls, inhibitors were added with the labelled substrate. The external radioactivity was removed on Sephadex G-75 and the internal radioactivity was measured. […] The initial rate of transport was calculated in mmol/min per g protein from the time course of isotope equilibration (13). […] For efflux measurements, the internal substrate pool of the proteoliposomes was made radioactive by carrier-mediated exchange equilibration (13) with 0.1 mM [^14C]oxoglutarate added at high specific radioactivity. After 60 min, the residual external radioactivity was removed by passing the proteoliposomes again through a column of Sephadex G-75. […]
The kinetic constants of the recombinant purified Odc1p and Odc2p were determined by measuring the initial transport rate at various external [^14C]oxoglutarate concentrations, in the presence of a constant saturating internal concentration of 20 mM oxoglutarate.
The values were calculated from Lineweaver-Burk plots of the rate of [^14C]oxoglutarate versus substrate concentrations. […]

O=C(O)CCC(=O)C(=O)O [2-Oxoglutarate]
[14C]oxoglutarate transport [1]: 27.8 mmol/min per g protein | [14C]oxoglutarate uptake with the internal substrate (in words) [1]: taken up efficiently

O=C(O)CC(C(=O)O)C(O)C(=O)O [L-Isocitrate]
Ki [2]: > 15 mM

Source: patent publication US20020155192A1, “Yeast transport isoforms” (priority 2000, published 2002)
